Assay results as given in patent publication US20040117125A1, “Drug discovery method and apparatus” (priority 1999, published 2004).

Protein sequences, listed by entry. Tags and fused reporters are not part of them. Lines headed by an entry give the natural chain unless they say otherwise; changes in a name come on top.
UniProt P35372, whole entry, looked up: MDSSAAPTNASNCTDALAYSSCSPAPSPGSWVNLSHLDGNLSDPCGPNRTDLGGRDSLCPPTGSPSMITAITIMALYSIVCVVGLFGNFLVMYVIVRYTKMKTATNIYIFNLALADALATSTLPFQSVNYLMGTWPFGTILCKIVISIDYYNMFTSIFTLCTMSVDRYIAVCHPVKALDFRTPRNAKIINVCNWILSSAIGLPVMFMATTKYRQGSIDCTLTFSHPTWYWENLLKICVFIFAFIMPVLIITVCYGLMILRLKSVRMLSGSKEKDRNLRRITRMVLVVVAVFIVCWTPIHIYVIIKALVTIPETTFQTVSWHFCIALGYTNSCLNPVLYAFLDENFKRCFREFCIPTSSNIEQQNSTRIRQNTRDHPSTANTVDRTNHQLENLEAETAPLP
UniProt P41143, whole entry, looked up: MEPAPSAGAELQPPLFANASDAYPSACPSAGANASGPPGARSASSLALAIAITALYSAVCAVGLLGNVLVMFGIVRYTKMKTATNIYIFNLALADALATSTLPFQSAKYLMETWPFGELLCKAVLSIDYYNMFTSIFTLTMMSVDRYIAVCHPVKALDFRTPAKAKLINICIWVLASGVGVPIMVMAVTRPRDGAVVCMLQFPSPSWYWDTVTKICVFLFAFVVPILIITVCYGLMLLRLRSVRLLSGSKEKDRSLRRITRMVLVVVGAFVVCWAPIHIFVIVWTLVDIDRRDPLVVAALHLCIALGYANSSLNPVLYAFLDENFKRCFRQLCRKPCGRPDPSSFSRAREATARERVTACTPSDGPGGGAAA
UniProt P41145: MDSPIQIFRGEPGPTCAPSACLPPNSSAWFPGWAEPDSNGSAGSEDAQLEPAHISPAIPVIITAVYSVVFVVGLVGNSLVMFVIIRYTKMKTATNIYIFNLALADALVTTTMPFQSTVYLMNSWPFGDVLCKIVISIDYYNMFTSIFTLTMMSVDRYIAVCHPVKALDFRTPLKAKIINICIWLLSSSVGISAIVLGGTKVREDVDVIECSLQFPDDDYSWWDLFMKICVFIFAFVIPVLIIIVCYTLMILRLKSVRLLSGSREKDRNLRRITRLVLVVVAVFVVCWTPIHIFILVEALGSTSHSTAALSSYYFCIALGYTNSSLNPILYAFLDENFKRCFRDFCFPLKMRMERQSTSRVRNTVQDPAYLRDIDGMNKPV

Assays:
Details in all cases: initial inhibition
Opiate, Mu = Opiate, Mu (Homo sapiens, UniProt P35372); test: Fluridone panel: Opiate, Mu
Opiate, Delta = Opiate, Delta (Homo sapiens, UniProt P41143); test: Fluridone panel: Opiate, Delta
Opiate, Kappa = Opiate, Kappa (Homo sapiens, UniProt P41145); test: Fluridone panel: Opiate, Kappa
[1] = tested on: Nicotinic, (a-bungaro-toxin insensitive); test: Fluridone panel: Nicotinic, (a-bungaro-toxin insensitive)

With `Cn1cc(-c2ccccc2)c(=O)c(-c2cccc(C(F)(F)F)c2)c1` the “Inhibition 10 uM” value (Opiate, Mu) was 7.75%, the “Inhibition 10 uM” value (Opiate, Delta) was 21.50% and the “Inhibition 10 uM” value (Opiate, Kappa) was −13.89%. The “Inhibition 10 uM” value [1] was −6.04%.
